# Laboratory results published in US20200179290A1, “AMORPHOUS POWDER COMPRISING AN ANGIOTENSIN RECEPTOR BLOCKER AND A NEUTRAL ENDOPEPTIDASE INHIBITOR” (Quimica Sintetica, S.A., priority 2015, published 2020).
# Experiment: pH of the solution in water/acetone mixture
# Type: physicochemical
# Details: water/acetone mixture of WO '546 Example 1
# Method: Sodium hydroxide can be preferably added in the form of an aqueous solution if the previous step was performed in a water miscible solvent alone; alternatively, sodium hydroxide can be added in solid (powder) form. Depending on the way of addition of NaOH, the resulting mixture may be, in turn, either a solution or a wet solid-containing mixture; for this reason, the result of NaOH addition is referred to in this description and in the claims generally as “mass”, which is intended to also include the case that the resulting mixture be a solution. If the preceding steps, and in particular the addition of sodium hydroxide, have been carried out correctly, the resulting mixture should be characterized by the same pH value achieved after dispersing LCZ-696 in the solvent or solvents mixture used to perform steps g) and h). Said standard value may be easily determined by the person skilled in the art by means of a preliminary investigation comprising the dispersion of LCZ-696 into the selected solvent or mixture of solvents and measuring the pH.
# Sacubitril (19.0 g, 46.2 mmol) and Valsartan (19.5 g, 44.8 mmol) were dissolved in acetone (1900 mL) under magnetic stirring at 25° C. A solution of sodium hydroxide (5.3 g, 132.2 mmol) in water (333 mL) was added to the former solution maintaining the resulting mixture under stirring up to obtaining a clear solution (pH=9.44). […]
substance,measurement,value
"trisodium [3-((1S,3R)-1-biphenyl-4-yl-methyl-3-ethoxycarbonyl-1-butylcarbamoyl)propionate-(S)-3′-methyl-2′-(pentanoyl{2″-(tetrazol-5-ylate)biphenyl-4′-yl-methyl}amino)butyrate]-hemi-pentahydrate [LCZ-696]",pH of the solution,9.62
